From patent publication US11478464B1, “Method for treating inflammation” (KING FAISAL UNIVERSITY, priority 2022, dated 2022)

Tested on: HEK293 cells
Settings: human, 24 h, 40 μM

## Cc1ccc(-c2cc(C(F)(F)F)nn2-c2ccc(S(N)(=O)=O)cc2)cc1 [Celecoxib]
  Proliferation of HEK293 (difference in absorbance between 450 and 620 nm), Average: 0.96
